Measured values taken from BindingDB's records for doi:10.1007/s10822-022-00478-x (Roche Innovation Center Basel, F. Hoffmann-La Roche Ltd., 2022).
pIC50: −log10 of the molar value.

Protein sequences, listed by entry. Tags and fused reporters are not part of them. Chains listed by the source or under a name are the forms on record and can include a tag or linker.
UniProt Q9Y233, as listed by the source: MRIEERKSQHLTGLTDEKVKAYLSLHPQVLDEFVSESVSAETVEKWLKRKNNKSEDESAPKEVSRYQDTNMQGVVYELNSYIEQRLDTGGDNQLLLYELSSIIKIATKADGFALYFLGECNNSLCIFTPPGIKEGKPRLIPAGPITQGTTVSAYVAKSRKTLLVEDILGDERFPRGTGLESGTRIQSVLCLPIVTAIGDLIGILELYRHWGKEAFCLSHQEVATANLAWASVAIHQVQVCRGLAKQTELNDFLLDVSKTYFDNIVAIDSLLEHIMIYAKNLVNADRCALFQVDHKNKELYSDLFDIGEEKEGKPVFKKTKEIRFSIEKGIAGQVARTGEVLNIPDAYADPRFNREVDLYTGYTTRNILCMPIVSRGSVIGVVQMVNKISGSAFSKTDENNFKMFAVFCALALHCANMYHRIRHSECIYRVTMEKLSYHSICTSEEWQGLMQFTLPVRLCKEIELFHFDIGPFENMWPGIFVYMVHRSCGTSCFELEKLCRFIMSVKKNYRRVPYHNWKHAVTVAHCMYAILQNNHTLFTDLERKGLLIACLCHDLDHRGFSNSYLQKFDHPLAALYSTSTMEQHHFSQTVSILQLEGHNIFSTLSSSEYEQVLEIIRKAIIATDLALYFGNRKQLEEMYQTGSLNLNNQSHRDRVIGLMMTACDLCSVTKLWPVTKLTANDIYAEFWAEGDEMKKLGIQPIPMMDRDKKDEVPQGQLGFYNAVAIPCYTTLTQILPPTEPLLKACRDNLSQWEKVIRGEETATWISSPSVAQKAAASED

Molecular target: cAMP and cAMP-inhibited cGMP 3',5'-cyclic phosphodiesterase 10A (Homo sapiens, UniProt Q9Y233)
Test: PDE10A assay
Experimental: Compounds were diluted in 20 mM HEPES/NaOH (pH 7.5), 10 mM MgCl2 and 0.05 mg/ml bovine serum albumin. A fixed amount of 2 ng/well human PDE10A enzyme was added and incubated at room temperature for 15 min under agitation. The reaction was started by the addition of the substrate cocktail [3H]cGMP (Perkin Elmer NET337001MC, S.A. 13.5 Ci/mmol) / cGMP at a final concentration of 50 nM and incubated for an additional 15 min. The reaction was stopped by the addition of 0.5 mg/well of Y-Si SPA beads. The plates were shaken for 1 h, followed by a brief centrifugation (170 g for 1 min). The radioactivity bound to the beads was estimated using a TopCount (Perkin-Elmer). For the determination of IC50 values, a four parameters logistics equation was used. pIC50 is defined as − log10(IC50).

- pIC50: 8.04
Structure (SMILES): CC(C)(O)CNC(=O)c1c(F)cccc1NC(=O)c1nc(C2CC2)cnc1Nc1cncnc1 [US8703768, 310]
